Values of other authors, collected in US10695378B2, “Direct reprogramming of cells to cardiac myocyte fate” (Duke University, priority 2010, dated 2020).

Assays:
[1] = system: multiple myeloma cells expressing activated JAKs; conditions: cells expressing activated JAKs and STATS

CC(C)(C)c1nc2c3ccc(F)cc3c3c(=O)[nH]ccc3c2[nH]1 [JAK inhibitor 1, 2-(1,1-Dimethylethyl)-9-fluoro-3,6-dihydro-7H-benz[h]-imidaz[4,5-f]isoquinolin-7-one]
growth of multiple myeloma cells [1]: induces the growth inhibition | IL-2- and IL-4-dependent proliferation of CTLL cells (CTLL cells): inhibits
